Assay results published in ChEMBL document CHEMBL3588796, “Potency enhancement of the κ-opioid receptor antagonist probe ML140 through sulfonamide constraint utilizing a tetrahydroisoquinoline motif” (Bioorg Med Chem, 2015).

By UniProt entry, the sequences of proteins in these tests, tags left out. Where a name states a change or a piece, a line headed by the entry shows the natural chain unless it says otherwise.
UniProt P41145: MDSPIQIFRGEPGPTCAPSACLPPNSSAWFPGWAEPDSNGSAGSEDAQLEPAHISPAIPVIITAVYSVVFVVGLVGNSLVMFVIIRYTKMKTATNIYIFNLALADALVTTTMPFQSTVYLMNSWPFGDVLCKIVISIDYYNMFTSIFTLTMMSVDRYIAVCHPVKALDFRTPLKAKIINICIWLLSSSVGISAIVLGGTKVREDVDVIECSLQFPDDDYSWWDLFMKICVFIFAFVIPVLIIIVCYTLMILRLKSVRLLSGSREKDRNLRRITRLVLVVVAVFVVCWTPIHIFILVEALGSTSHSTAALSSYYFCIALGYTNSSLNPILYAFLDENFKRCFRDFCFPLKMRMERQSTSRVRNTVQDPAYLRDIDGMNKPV

Key:
[1] = molecular target: T1, Kappa-type opioid receptor (Homo sapiens, UniProt P41145); test: Antagonist activity against HA-tagged human recombinant kappa opioid receptor expressed in CHO cells assessed as inhibition of U69,593-induced ERK phosphorylation pre-incubated with compound before U69,593 stimulation for 10 mins; type: cell-based
[2] = molecular target: T1, Kappa-type opioid receptor; test: Antagonist activity against HA-tagged human recombinant kappa opioid receptor expressed in CHO cell membranes incubated for 1 hr by [35S]GTPgammaS binding assay; type: functional
[3] = molecular target: T1, Kappa-type opioid receptor; test: Antagonist activity against human kappa opioid receptor expressed in human U2OS cells co-expressing beta-arrestin2 pre-treated for 15 mins before U69,593 stimulation for 90 mins by DiscoveRx beta-arrestin2 recruitment based PathHunter assay; type: cell-based

| SMILES | IC50 [1] | IC50 [2] | IC50 [3] |
| --- | --- | --- | --- |
| Cc1ccc(S(=O)(=O)NCc2ccc(C(=O)NCCN(Cc3ccc(Br)cc3)C(C)C)cc2)cc1 | 750 nM | 168 nM | 937 nM |
| CCc1ccc(S(=O)(=O)N2CCc3cc(C(=O)NCCN(Cc4ccccc4)C(C)(C)C)ccc3C2)cc1 | 143 nM | 3.4 nM | 186 nM |
